Drawing on PubChem BioAssay AID602399 (Sanford-Burnham Center for Chemical Genomics, 2012), this text covers inhibition for 26 compounds.

This is a selection; strong and weak results do not stand in their true shares. Some tests of the compounds listed are not included; inactive here does not mean inactive elsewhere. Active and inactive are the calls of the source. No stated cut-off is given here; in the data, active means inhibition above about 26%; inactive means the rest.

For the assay, the system named is Nicotinate-nucleotide adenylyltransferase NadD (Staphylococcus aureus N315). In words: S. aureus NadD enzyme activity blockers – biochemical, colorimetric, uHTS, primary screen (AID 602399). The following applies: purified NadD enzyme, colorimetric absorbance read-out; at 20 µM; stronger effect = higher value.
Regarding `CN(C)C1(CNC(=O)c2ccc(Br)cc2)CCCCC1`, the inhibition is inactive: -4.64%. With `COc1cc(C(=O)NCC2(N(C)C)CCCCC2)c([N+](=O)[O-])cc1OC`, the inhibition was inactive: -3.75%. In the case of `COc1cccc(C(=O)NCC2(N3CCCCC3)CCCCC2)c1` it was inactive: -9.01%.

As for `COc1ccc(Cl)cc1C(=O)NCC1(N(C)C)CCCCC1`, the inhibition was inactive: -6.47%. On to `O=C(NCC1(N2CCCCC2)CCCCC1)c1cccc(Cl)c1`, for which the inhibition was inactive: -1.38%. In the case of `O=C(OC1CN2CCC1CC2)C(CO)(c1ccccc1)c1ccccc1` (stereo unspecified), the inhibition is inactive: -4.67%. For `COc1ccc(Br)c(C(=O)NCC2(N3CCCCC3)CCCCC2)c1`, the inhibition was inactive: 1.3%. Then `C=C(C)C#CC(O)(C(=O)OC1CCN(C)CC1)c1ccccc1` (stereo unspecified), with inactive: 0.31%. In the case of `CN(C)c1cccc(C(=O)NCC2(N(C)C)CCCCC2)c1` it was inactive: -6.69%; in that of `CC(C)Oc1ccc(C(=O)NCC2(N(C)C)CCCCC2)cc1`, inactive: -10.1%.

Regarding `O=C(OCCN1CCCC1)C(O)(c1ccccc1)c1ccccc1`, the inhibition was inactive: 0.468%.

Regarding `O=C(NCC1(N2CCCCC2)CCCCC1)c1cc([N+](=O)[O-])ccc1Cl`, the inhibition is inactive: 2.04%.

`CN1[C@@H]2CC[C@H]1CC(OC(=O)C(O)(c1ccccc1)c1ccccc1)C2` (stereo partly specified): the inhibition was inactive: -9.03%. In the case of `CC(C)N1C(=O)CC2(CCN(CCOC(=O)C(O)(c3ccccc3)c3ccccc3)CC2)C1=O`, the inhibition is inactive: -1.69%.

Consider `CCN(CC)CC(C)C(C)OC(=O)C(O)(c1ccccc1)c1ccccc1` (stereo unspecified), for which the inhibition is inactive: 1.83%. As for `COc1cc(SC)ccc1C(=O)NCC1(N(C)C)CCCCC1`, the inhibition is inactive: -10%. In the case of `Cc1ccc(C(=O)NCC2(N3CCCCC3)CCCCC2)cc1` it was inactive: -2.76%; in that of `Cc1ccccc1C(=O)NCC1(N2CCCCC2)CCCCC1`, inactive: -5.01%; in that of `CN(C)C1CCCC1OC(=O)C(O)(c1ccccc1)c1ccccc1` (stereo unspecified), inactive: 2.08%. Then `CN(C)c1ccc(C(=O)NCC2(N(C)C)CCCCC2)cc1`, with inactive: -8.11%. In the case of `C=CCN1CCN(CCOC(=O)C(O)(c2ccccc2)c2ccccc2)CC1` it was inactive: -3.29%; in that of `O=C(NCC1(N2CCCCC2)CCCCC1)c1cc(F)c(F)cc1Cl`, inactive: -9.67%; in that of `Cc1cc(C(=O)NCC2(N3CCCCC3)CCCCC2)ccc1[N+](=O)[O-]`, inactive: -7.77%. With `CCN1CCCC(OC(=O)C2(O)c3ccccc3C=Cc3ccccc32)C1` (stereo unspecified), the inhibition is inactive: -6.61%. Then `O=C(NCC1(N2CCCCC2)CCCCC1)c1cccc(Br)c1`, with inactive: -3.43%. Turning to `COc1ccc(C(=O)NCC2(N(C)C)CCCCC2)cc1`, the inhibition is inactive: -0.924%.

Broadly, the inhibition is the relative decrease from the control value, in per cent.
